Bioassay records from PubChem BioAssay.
Only some compounds are listed: those with a hit (about 0.34% of all), similar ones and a draw of the others.
PDI inh: PDI (human) enzyme inhibition; AID 588391; PDI insulin aggregation turbidity, A650, 90 min; inhibition, % at 10 µM; actives 0.052% (n = 350,000);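 active = mean inhibition across replicates of 30% or more, whatever share of single replicates reach that level; inconclusive = mean inhibition below 30% while every single replicate reaches 30%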
Cneo AK release: Cryptococcus neoformans lysis via adenylate kinase release. C. neoformans lysis, adenylate kinase release luminescence, 4 h; normalised: neutral wells 0, clomiphene wells 100. lysis activity, % at 15 µM. actives 0.2% (n = 360,000). AID 651654;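 active = mean lysis activity across replicates of at least 80%, whatever share of replicates individually reach that level; inactive = mean lysis activity below 80%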
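Assay system: log-phase C. neoformans yeast / Quantity: yeast cell density of 5 × 10^6 cells/mL / Medium: fresh YPD growth medium / Compound: single dose / Timing: static 4 h at 37 °C with compound, 1 h detection / Measured by: adenylate kinase release luminescence / Read-out: lysis from increased AK signal / Benchmarks: Clomiphene as positive lysis control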
UUG fidelity: modulators of start codon recognition fidelity in yeast; AID 602363; hit rate 0.13% among 350,000; activity score, % at 18.7 µM; S. cerevisiae UUG-firefly luciferase reporter, luminescence/redox ratio;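 active = replicate mean at a twofold rise or more, about +100% in these data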;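 note: firefly luciferase made from a UUG start codon reports start codon fidelity; reporter light over untreated wells divided by growth signal over untreated wells; some hits fall short of that in this replicate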
ERp5 block: blocks human ERp5 reductase activity on insulin; Q15084; ERp5 insulin aggregation, absorbance 650 nm, 90 min; inhibition, % at 9.99 µM; actives 0.05% (n = 350,000);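 active = mean replicate inhibition above about 25%, with every replicate also reaching it, limit read from the data, passing the limit was not always enough; inconclusive = only one of those two criteria met; inactive = neither criterion met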
An asterisk follows results filed as active.

Screening C[C@H](CO)N1C[C@H](C)[C@H](CN(C)Cc2ccccc2)Oc2cc(C#Cc3ccccn3)ccc2S1(=O)=O returned Cneo AK release 99.0*, UUG fidelity -4.6 and ERp5 block -4.3.
Screening C/C=C/c1ccc2c(c1)O[C@H](CN(C)S(C)(=O)=O)[C@@H](C)CN([C@@H](C)CO)S2(=O)=O returned Cneo AK release -3.5, UUG fidelity 7.4 and ERp5 block inconclusive.
Screening O=C(C[C@@H]1CC[C@H]2[C@@H](COC[C@@H](O)CN2C(=O)c2cccnc2)O1)NCC1CC1 returned Cneo AK release -2.3.
`CC(C)NC(=O)Nc1ccc2c(c1)CC(=O)N([C@H](C)CO)C[C@@H](C)[C@@H](CN(C)S(=O)(=O)c1cn(C)cn1)O2` gave Cneo AK release -1.6, UUG fidelity 5.9 and ERp5 block -1.4.
`CC(C)NC(=O)N(C)C[C@@H]1Oc2ccc(N(C)C)cc2C(=O)N([C@H](C)CO)C[C@@H]1C` gave Cneo AK release -2.1, UUG fidelity -3.8 and ERp5 block -1.2.
For C[C@H](CO)N1C[C@H](C)[C@@H](CN(C)S(C)(=O)=O)Oc2cc(C#Cc3ccccc3)ccc2S1(=O)=O the results were Cneo AK release 90.7*, UUG fidelity 18.4 and ERp5 block 5.6.
CCCC#Cc1ccc2c(c1)O[C@@H](CN(C)CCC)[C@H](C)CN([C@@H](C)CO)S2(=O)=O was read as Cneo AK release 6.9, UUG fidelity -3.3 and ERp5 block 1.5.
Screening CCCC#Cc1ccc2c(c1)O[C@H](CN(C)CCC)[C@H](C)CN([C@@H](C)CO)S2(=O)=O returned Cneo AK release 102.6*, UUG fidelity 19.4 and ERp5 block -5.5.
Screening C[C@H](CO)N1C[C@H](C)[C@H](CN(C)S(C)(=O)=O)Oc2cc(C#Cc3ccccc3)ccc2S1(=O)=O returned Cneo AK release 0.5, UUG fidelity -3.6 and ERp5 block -1.1.
For C/C=C/c1ccc2c(c1)O[C@H](CN(C)S(C)(=O)=O)[C@H](C)CN([C@@H](C)CO)S2(=O)=O the results were Cneo AK release -6.3, UUG fidelity 17.7 and ERp5 block 7.7.
For C/C=C/c1ccc2c(c1)O[C@H](CN(C)Cc1cncnc1)[C@H](C)CN([C@@H](C)CO)S2(=O)=O the results were Cneo AK release 11.2, UUG fidelity 14.0 and ERp5 block 28.7*.
Screening C/C=C/c1ccc2c(c1)O[C@@H](CN(C)S(C)(=O)=O)[C@H](C)CN([C@@H](C)CO)S2(=O)=O returned Cneo AK release -3.6, UUG fidelity 13.8 and ERp5 block 68.1*.
`C/C=C/c1ccc2c(c1)O[C@@H](CN(C)Cc1cccnc1)[C@@H](C)CN([C@H](C)CO)S2(=O)=O` gave Cneo AK release 46.4, UUG fidelity -6.3 and ERp5 block -0.4.
CN(C)CC(=O)N[C@@H]1CC[C@H](CCNC(=O)C2CC2)O[C@@H]1CO was read as ERp5 block -5.8.
C[C@H](CO)N1C[C@H](C)[C@@H](CN(C)C(=O)c2ccc3c(c2)OCO3)Oc2ncc(/C=C/c3ccccc3)cc2C1=O was read as Cneo AK release 4.0, UUG fidelity 8.1 and ERp5 block -3.4.
Screening Cc1noc(C)c1NC(=O)N[C@H]1CC[C@H](CC(=O)N2CCN(C)CC2)O[C@H]1CO returned Cneo AK release 2.7 and ERp5 block -0.8.
O=C(Nc1ccc(N2CCOCC2)cc1)C1CC1 was read as PDI inh 5.4, Cneo AK release -3.8 and UUG fidelity -9.0.
O=C(N/N=C/c1ccc(N2CCOCC2)cc1)C1CC1 was read as PDI inh 37.9*, Cneo AK release 0.3, UUG fidelity -48.7 and ERp5 block 2.3.
`Cc1c(O)ccc2c(CC(=O)N[C@@H](Cc3c[nH]c4ccccc34)C(=O)O)cc(=O)oc12` gave PDI inh 59.8*, Cneo AK release -2.2, UUG fidelity -10.4 and ERp5 block 1.2.
For O=C(C[C@@H]1CC[C@H]2[C@@H](COC[C@H](O)CN2Cc2cccc(C(F)(F)F)c2)O1)NCc1ccccc1 the results were Cneo AK release 99.7* and ERp5 block -1.5.
O=C(C[C@H]1CC[C@@H]2[C@H](COC[C@H](O)CN2CC2CCOCC2)O1)NCc1ccc(Cl)cc1 was read as Cneo AK release 86.3* and ERp5 block 2.5.
For O=C(C[C@@H]1CC[C@@H]2[C@H](COC[C@@H](O)CN2CC2CCOCC2)O1)NCc1ccc(Cl)cc1 the results were Cneo AK release 0.1 and ERp5 block -0.1.

By substructure: the entries above with a Cl atom
O=C(C[C@H]1CC[C@@H]2[C@H](COC[C@H](O)CN2CC2CCOCC2)O1)NCc1ccc(Cl)cc1 was read as Cneo AK release 86.3* and ERp5 block 2.5.
For O=C(C[C@@H]1CC[C@@H]2[C@H](COC[C@@H](O)CN2CC2CCOCC2)O1)NCc1ccc(Cl)cc1 the results were Cneo AK release 0.1 and ERp5 block -0.1.
